Experimental data: PubChem BioAssay AID1948 (National Center for Advancing Translational Sciences (NCATS), 2009)
The entries are a selection whose mix differs from that of the whole data set. Some structures show a salt or complex split into parts, the way the source records it. The source made the active and inactive calls. Calls follow the shape of the dose curve; as a rule, active = well fitted activation curve with a large enough effect; inconclusive = small, poorly fitted or top-dose-only effect; inactive = no such curve, though single readings can be large or run the other way.

Assay: qHTS Assay for Compounds that Induce Erasure of Genomic Imprints;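 also: 0% = negative control wells on the plate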
Details: mouse ES Peg3-LacZ reporter, beta-gal luminescence, 40 h; at 60.7 µM (top of the series) unless noted
For `O=[N+]([O-])[O-].[NH4+]`, the activity change, positive = activation was inactive: 0.3%.
For `Cc1ccc(NP(C)(=O)Oc2ccccc2)c(C)c1` (centres undefined), the activity change, positive = activation was inactive: -10%.
In the case of `COc1ccccc1OP(C)(=O)Nc1ccc(C)cc1` (centres undefined), the activity change, positive = activation is reported as inactive: -11.4%.
In the case of `N1=C(c2nnc(-c3nn[nH]n3)nn2)NNN1`, the activity change, positive = activation is reported as inactive: 1.86% [at 10.9 µM].
With `CP(=S)(Nn1cnnc1)Oc1ccccc1` (centres undefined) the activity change, positive = activation was inactive: 3.16%.
With `CP(=O)(NC(=O)Nc1ccccc1)Oc1ccccc1` (centres undefined) the activity change, positive = activation was inactive: -2.25%.
With `[Au].[Au].c1ccc([PH+](c2ccccc2)c2ccccc2)cc1.c1ccc([PH+](c2ccccc2)c2ccccc2)cc1.n1n[nH]c(-c2nnn[nH]2)n1` the activity change, positive = activation was inactive: -25% [at 10.9 µM].
For `CCOP(C)(=S)SCC(=O)NC(C)C(=O)O` (centres undefined), the activity change, positive = activation was inactive: 9.78%.
In the case of `Cc1nc2ccc3ccccc3c2s1.O=[N+]([O-])c1cc([N+](=O)[O-])c(O)c([N+](=O)[O-])c1`, the activity change, positive = activation is reported as inactive: -3.32%.
In the case of `O=[N+]([O-])c1cccc([N+](=O)[O-])c1`, the activity change, positive = activation is reported as inactive: -0.662%.
For `Cc1ccc([N+](=O)[O-])cc1[N+](=O)[O-]`, the activity change, positive = activation was inactive: -1.03%.
For `O=[N+]([O-])OCC(CO[N+](=O)[O-])(CO[N+](=O)[O-])CO[N+](=O)[O-]`, the activity change, positive = activation was inactive: -4.38%.
In the case of `Cc1ccc(C)c(NP(C)(=O)Oc2ccccc2)c1` (centres undefined), the activity change, positive = activation is reported as inactive: -8.28%.
In the case of `CP(=O)(Nc1ccccc1F)Oc1ccccc1` (centres undefined), the activity change, positive = activation is reported as inactive: -1.09%.
With `Cc1cccc([N+](=O)[O-])c1[N+](=O)[O-]` the activity change, positive = activation was inactive: 6.19%.
With `CCC(C)(OO)OOC(C)(CC)OO` (centres undefined) the activity change, positive = activation was inactive: -4.95%.
In the case of `CN(C)CCOC(=O)C(O)(c1ccccc1)C1CCCCC1` (centres undefined), the activity change, positive = activation is reported as inactive: -3.8%.
For `Cc1c([N+](=O)[O-])cccc1[N+](=O)[O-]`, the activity change, positive = activation was inactive: 6.49%.
With `Cc1ccc([N+](=O)[O-])c([N+](=O)[O-])c1` the activity change, positive = activation was inactive: -1.9%.
In the case of `CCOP(C)(=S)SCC(=O)NC(C)(CC)C(=O)O` (centres undefined), the activity change, positive = activation is reported as inactive: -14.8%.
With `CCOP(=O)(CC)OCC` the activity change, positive = activation was inactive: 1.9%.
With `[NH4+].[O-][Cl+3]([O-])([O-])[O-]` the activity change, positive = activation was inactive: 1.05%.
In the case of `Cc1ccccc1NP(C)(=O)Nc1ccccc1C`, the activity change, positive = activation is reported as inactive: 2.47%.
In the case of `CCN(CCCl)Cc1ccccc1C`, the activity change, positive = activation is reported as inactive: -13.4%.
For `NNC(NN)NN.n1nc(-c2nn[nH]n2)n[nH]1`, the activity change, positive = activation was inactive: -6.49% [at 10.9 µM].
For `CP(=O)(Nc1ccc2c(c1)OCCO2)Oc1ccccc1` (centres undefined), the activity change, positive = activation was inactive: 2.74%.
For `OCCSCCO`, the activity change, positive = activation was inactive: -1.37%.
For `COc1ccccc1OP(C)(=O)Nc1c(C)n(C)n(-c2ccccc2)c1=O` (centres undefined), the activity change, positive = activation was inactive: -0.924%.
With `CP(=O)(Oc1ccccc1)N1CCOC1=O` (centres undefined) the activity change, positive = activation was inactive: -2.66%.
With `N#[O+].[C-]#N.[C-]#N.[C-]#N.[C-]#N.[C-]#N.[Fe+2].[Na+].[Na+]` the activity change, positive = activation was inactive: -2.88%.
In the case of `C/C1=C2N=C(/C=C3N=C(/C(C)=C4\[N-][C@@](C)([C@H]5N=C1[C@@](C)(CCC(=O)NC[C@H](C)OP(=O)([O-])O[C@@H]1[C@H](O)[C@H](n6cnc7cc(C)c(C)cc76)O[C@@H]1CO)[C@@H]5CC(N)=O)[C@](C)(CC(N)=O)[C@H]4CCC(N)=O)[C@@](C)(CC(N)=O)[C@@H]\3CCC(N)=O)C(C)(C)[C@@H]/2CCC(N)=O.[C-]#N.[Co+3]`, the activity change, positive = activation is reported as inactive: -47.8% [at 16.8 µM].
For `COc1ccccc1OP(C)(=O)Nc1ccc(C)c(C)c1` (centres undefined), the activity change, positive = activation was inactive: -4.3%.
With `Cc1nc2ccc3ccccc3c2o1.O=[N+]([O-])c1cc([N+](=O)[O-])c(O)c([N+](=O)[O-])c1` the activity change, positive = activation was inactive: -33.5%.
With `CP(=O)(Nc1ccccn1)Oc1ccccc1` (centres undefined) the activity change, positive = activation was inactive: -2.06%.
